Source: article PMC7190724, “Improved GPCR ligands from nanobody tethering” (Nature Communications, 2020)

Protein sequences, listed by entry. Tags and fused reporters are not part of them. Residues count along the entry.
UniProt Q03431, 27-593 limits assumed: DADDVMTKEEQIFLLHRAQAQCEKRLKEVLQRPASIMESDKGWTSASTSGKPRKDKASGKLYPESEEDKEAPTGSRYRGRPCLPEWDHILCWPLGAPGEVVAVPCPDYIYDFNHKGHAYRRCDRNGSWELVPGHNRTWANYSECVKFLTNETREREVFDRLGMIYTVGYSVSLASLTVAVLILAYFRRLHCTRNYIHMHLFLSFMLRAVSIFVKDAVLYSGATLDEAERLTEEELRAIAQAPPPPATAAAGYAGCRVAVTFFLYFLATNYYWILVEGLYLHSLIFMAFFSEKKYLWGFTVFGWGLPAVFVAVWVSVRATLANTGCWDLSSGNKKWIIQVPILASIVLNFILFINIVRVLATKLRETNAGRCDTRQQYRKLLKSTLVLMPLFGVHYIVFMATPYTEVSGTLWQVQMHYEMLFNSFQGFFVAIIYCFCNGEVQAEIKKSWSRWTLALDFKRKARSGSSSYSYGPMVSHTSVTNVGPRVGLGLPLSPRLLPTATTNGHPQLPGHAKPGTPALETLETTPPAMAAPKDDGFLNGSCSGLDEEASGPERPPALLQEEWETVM

Biological target: PTHR1GFP (Homo sapiens, UniProt Q03431)
Assay: cAMP response (GloSensor luminescence), HEK293 stably expressing PTHR1GFP (GPG10)
Type: cell-based
Details: peak GloSensor luminescence; mean ± SD, ≥3 independent experiments
Procedure: These assays were performed as previously described. Briefly, HEK-293-derived cell lines that stably express the Glosensor cAMP reporter (Promega Corp.)[30] and PTHR1, a PTHR1 variant, or PTHR2 were seeded into white sided 96-well plates (50,000 cells/well) and grown to confluency. Confluent monolayers of cells were pre-incubated with CO2 independent medium containing D-luciferin (0.5 mM) at 37 °C until a stable baseline level of luminescence was established (20 min). Varying concentrations of ligands were then added, and the time course of luminescence response was recorded using BioTek plate reader. The maximal luminescence response (observed 12–16 min after ligand addition) was used to construct dose-response data sets (Table 1, Supplementary Fig. 6).
Data were processed using Microsoft Excel and GraphPad Prism 6. Data from cAMP dose–response assays were analyzed using a sigmoidal dose–response model with variable slope. Data sets were statistically compared by using Student’s t test (two-tailed) assuming unequal variances for the two sets.
Supplementary Figure 1. […]
GFP variant known as pHluorin2 engrafted into the receptor(ref. 19, main text). c) HEK293 cells stably expressing PTHR1-GFP were treated with varied doses of the indicated peptides or conjugates and activation was assessed by measuring luminescence from a cAMP-activated luciferase variant. […]

With CC[C@H](C)[C@H](NC(=O)[C@H](CCC(=O)O)NC(=O)C(C)(C)NC(=O)[C@@H](NC(=O)[C@H](C)N)C(C)C)C(=O)N[C@@H](CCC(N)=O)C(=O)N[C@@H](CC(C)C)C(=O)N[C@@H](CCSC)C(=O)N[C@@H](Cc1c[nH]cn1)C(=O)N[C@@H](CS)C(N)=O the “EC50, cAMP induction” value was “Inactive at 10,000 nM”.
